Assay [1] deals with T1, Epidermal growth factor receptor (Homo sapiens, UniProt P00533). Put plainly: Inhibition of Epidermal growth factor receptor.
Assay [2] addresses T1, Epidermal growth factor receptor. Put plainly: Inhibition of Epidermal growth factor receptor-dependent phosphorylation.
For assay [3], the target named is Tyrosine-protein kinase ABL (Homo sapiens, UniProt P00519+P42684). Put plainly: Inhibition of v-Abl tyrosine kinase. It is filed as protein assay.

Sequences of proteins named here, by UniProt entry; tags and fusion partners are left off. A change or cut given only in a name is not applied to a line headed by its entry.
UniProt P00533, whole entry: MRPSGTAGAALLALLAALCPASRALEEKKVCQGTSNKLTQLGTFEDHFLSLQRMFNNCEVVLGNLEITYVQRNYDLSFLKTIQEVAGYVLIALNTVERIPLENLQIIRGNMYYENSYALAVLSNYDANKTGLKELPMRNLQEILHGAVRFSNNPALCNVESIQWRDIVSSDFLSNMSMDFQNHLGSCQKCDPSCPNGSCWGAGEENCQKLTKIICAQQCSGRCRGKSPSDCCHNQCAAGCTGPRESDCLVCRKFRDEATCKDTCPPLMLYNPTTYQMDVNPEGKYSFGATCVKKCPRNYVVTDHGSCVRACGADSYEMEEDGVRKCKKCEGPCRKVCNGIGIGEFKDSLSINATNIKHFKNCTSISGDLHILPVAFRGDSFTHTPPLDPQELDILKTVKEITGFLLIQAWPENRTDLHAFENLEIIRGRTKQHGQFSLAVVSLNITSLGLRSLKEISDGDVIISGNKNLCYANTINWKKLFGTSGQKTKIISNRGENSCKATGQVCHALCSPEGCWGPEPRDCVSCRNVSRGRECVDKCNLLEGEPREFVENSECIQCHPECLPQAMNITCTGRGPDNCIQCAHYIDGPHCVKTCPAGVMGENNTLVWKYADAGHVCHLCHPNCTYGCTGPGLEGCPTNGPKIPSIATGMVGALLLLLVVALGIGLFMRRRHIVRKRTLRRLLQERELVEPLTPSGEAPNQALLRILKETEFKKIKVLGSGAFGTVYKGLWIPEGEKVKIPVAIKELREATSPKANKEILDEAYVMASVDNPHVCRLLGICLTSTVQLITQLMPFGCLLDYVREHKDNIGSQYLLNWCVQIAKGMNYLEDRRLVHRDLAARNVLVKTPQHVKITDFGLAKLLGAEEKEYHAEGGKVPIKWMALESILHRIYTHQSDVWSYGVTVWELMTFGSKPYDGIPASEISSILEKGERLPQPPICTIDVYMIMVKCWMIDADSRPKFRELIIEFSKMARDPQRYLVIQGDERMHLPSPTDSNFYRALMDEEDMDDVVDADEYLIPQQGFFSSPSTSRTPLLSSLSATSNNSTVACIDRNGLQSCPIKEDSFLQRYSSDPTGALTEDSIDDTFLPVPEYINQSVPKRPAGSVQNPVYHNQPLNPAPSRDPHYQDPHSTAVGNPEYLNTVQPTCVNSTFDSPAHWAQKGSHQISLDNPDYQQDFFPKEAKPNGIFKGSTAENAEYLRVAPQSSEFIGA
UniProt P00519: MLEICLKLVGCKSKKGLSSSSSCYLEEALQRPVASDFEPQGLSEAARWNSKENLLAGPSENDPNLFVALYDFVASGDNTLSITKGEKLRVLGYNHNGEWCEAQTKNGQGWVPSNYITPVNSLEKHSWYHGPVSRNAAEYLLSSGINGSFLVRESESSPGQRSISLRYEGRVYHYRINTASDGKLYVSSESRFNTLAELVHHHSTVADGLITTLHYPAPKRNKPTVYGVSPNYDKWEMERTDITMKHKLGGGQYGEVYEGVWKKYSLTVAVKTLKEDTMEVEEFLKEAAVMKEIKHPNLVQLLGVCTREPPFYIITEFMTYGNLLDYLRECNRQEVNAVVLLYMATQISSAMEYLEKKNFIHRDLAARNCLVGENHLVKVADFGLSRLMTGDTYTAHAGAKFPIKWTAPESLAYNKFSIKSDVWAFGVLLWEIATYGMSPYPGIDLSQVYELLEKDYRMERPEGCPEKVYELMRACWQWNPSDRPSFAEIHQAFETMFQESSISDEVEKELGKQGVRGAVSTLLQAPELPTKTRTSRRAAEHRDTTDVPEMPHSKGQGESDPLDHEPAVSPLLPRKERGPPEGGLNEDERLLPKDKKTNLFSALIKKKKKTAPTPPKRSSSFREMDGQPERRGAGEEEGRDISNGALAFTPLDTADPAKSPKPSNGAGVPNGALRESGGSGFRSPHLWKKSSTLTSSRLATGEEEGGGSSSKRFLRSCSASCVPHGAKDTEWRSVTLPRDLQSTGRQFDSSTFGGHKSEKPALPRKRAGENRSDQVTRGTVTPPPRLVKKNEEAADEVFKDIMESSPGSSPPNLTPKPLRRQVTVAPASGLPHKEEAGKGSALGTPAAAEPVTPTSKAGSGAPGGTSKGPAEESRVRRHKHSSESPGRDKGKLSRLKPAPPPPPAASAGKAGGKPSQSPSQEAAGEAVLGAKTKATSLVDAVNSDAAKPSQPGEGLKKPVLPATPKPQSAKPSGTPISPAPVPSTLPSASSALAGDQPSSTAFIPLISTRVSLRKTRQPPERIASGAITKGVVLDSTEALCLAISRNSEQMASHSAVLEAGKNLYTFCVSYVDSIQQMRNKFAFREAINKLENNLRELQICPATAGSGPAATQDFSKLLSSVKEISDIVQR
UniProt P42684: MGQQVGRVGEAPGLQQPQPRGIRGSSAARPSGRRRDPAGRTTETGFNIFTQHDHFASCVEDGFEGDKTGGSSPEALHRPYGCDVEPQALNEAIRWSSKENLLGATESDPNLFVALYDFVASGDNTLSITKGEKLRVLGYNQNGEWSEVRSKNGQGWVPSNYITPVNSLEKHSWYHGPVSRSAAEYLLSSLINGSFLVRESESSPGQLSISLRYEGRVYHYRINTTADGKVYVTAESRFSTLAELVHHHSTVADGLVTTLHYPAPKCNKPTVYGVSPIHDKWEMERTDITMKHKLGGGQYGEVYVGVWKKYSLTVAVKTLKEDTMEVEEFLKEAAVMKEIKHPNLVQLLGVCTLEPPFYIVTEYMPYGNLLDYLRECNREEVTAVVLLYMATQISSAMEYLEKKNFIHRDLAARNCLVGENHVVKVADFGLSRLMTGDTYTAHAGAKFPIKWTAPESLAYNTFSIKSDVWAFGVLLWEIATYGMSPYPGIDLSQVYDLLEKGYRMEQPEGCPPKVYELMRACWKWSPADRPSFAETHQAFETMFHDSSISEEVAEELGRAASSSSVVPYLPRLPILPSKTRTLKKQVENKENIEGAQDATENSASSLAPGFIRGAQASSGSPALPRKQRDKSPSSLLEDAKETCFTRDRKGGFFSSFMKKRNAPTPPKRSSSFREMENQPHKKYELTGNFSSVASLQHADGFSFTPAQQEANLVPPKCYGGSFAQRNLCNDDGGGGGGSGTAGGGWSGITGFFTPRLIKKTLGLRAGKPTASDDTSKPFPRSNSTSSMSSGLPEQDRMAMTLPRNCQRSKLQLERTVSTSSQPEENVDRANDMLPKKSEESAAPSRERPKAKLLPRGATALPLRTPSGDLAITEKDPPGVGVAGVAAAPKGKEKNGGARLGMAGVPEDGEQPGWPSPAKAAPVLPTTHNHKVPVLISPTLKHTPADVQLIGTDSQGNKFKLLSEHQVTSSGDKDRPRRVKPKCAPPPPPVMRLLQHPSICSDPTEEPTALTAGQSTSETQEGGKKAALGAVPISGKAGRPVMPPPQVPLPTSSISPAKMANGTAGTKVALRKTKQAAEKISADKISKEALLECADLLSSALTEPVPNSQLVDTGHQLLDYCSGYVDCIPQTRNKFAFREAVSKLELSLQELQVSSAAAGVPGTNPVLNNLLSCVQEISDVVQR

Turning to `COc1cc2ncnc(Nc3cccc(Cl)c3)c2cc1OC` [TYRPHOSTIN AG-1478], the figures for the IC50 in assay [1], in assay [2] and in assay [3] were 6 nM, 120 nM and 125 nM, respectively.

As a reminder, the IC50 is the concentration that inhibits the measured activity by half.

These data come from ChEMBL document CHEMBL1132606, “Use of a pharmacophore model for the design of EGFR tyrosine kinase inhibitors: isoflavones and 3-phenyl-4(1H)-quinolones” (J Med Chem, 1999).
